Measurements published in patent US4585859A, “Analogues of morpholinyl daunorubicin and morpholinyl doxorubicin” (priority 1984, dated 1986).

Columns and labels:
[1] = test system: DNA synthesis in L 1210 Cells; assay: Inhibition of DNA synthesis in L 1210 Cells; assay type: cell-based, mouse; conditions: read-out: Leukemia L-1210 Cells Inhibition of Synthesis ED50, DNA
[2] = test system: RNA synthesis in L 1210 Cells; assay: Inhibition of RNA synthesis in L 1210 Cells; assay type: cell-based, mouse; conditions: read-out: Leukemia L-1210 Cells Inhibition of Synthesis ED50, RNA

SMILES	IC50 [1] [nM]	IC50 [2] [nM]
COc1cccc2c1C(=O)c1c(O)c3c(c(O)c1C2=O)C[C@@](O)(C(=O)CO)C[C@@H]3O[C@H]1C[C@H]2[C@H](OC3COCC(C#N)N32)[C@H](C)O1 (stereo partly shown)	1700	480
COc1cccc2c1C(=O)c1c(O)c3c(c(O)c1C2=O)C[C@@](O)(C(=O)CO)C[C@@H]3O[C@H]1C[C@H](N2CCOCC2C#N)[C@H](O)[C@H](C)O1 (stereo partly shown) [NSC 357704, 3'-deamino-3'-(3"-cyano-4"-morpholinyl)doxorubicin]	3	–
COc1cccc2c1C(=O)c1c(O)c3c(c(O)c1C2=O)C[C@@](O)(C(O)CO)C[C@@H]3O[C@H]1C[C@H](N2CCOCC2C#N)[C@H](O)[C@H](C)O1 (stereo partly shown) [NSC 360291, 3'-deamino-3'-(3"-cyano-4"-morpholinyl)-13-dihydrodoxorubicin]	21	–
